# Test results: ChEMBL document CHEMBL4419168, “Substituted n-([1,1''-biphenyl]-3-yl)-[1,1''-biphenyl]-3-carboxamide analogs as inhibitors for beta-catenin/b-cell lymphoma 9 interactions” (2018)
# Sequences of proteins named here, by UniProt entry; tags and fusion partners are left off. A change or cut given only in a name is not applied to a line headed by its entry.
# UniProt P35222: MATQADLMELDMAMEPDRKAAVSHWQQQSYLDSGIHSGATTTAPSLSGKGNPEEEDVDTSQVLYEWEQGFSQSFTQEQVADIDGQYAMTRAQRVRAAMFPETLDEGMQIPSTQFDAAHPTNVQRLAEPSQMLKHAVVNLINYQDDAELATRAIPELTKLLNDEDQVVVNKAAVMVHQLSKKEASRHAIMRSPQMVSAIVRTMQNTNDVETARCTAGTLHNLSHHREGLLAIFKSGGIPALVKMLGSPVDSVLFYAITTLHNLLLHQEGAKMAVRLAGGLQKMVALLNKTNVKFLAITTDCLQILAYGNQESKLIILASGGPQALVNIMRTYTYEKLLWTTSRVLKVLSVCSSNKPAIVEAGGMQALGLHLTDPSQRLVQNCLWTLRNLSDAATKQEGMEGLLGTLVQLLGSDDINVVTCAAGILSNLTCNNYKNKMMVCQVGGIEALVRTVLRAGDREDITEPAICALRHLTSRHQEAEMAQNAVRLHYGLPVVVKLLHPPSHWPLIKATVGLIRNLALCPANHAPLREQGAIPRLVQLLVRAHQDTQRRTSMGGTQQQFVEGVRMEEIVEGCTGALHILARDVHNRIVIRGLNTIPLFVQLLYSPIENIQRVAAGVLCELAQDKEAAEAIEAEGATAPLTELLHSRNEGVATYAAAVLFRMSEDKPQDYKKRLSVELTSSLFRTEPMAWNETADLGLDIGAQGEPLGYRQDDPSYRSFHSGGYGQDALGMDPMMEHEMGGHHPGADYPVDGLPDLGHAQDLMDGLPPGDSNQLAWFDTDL
# UniProt O00512: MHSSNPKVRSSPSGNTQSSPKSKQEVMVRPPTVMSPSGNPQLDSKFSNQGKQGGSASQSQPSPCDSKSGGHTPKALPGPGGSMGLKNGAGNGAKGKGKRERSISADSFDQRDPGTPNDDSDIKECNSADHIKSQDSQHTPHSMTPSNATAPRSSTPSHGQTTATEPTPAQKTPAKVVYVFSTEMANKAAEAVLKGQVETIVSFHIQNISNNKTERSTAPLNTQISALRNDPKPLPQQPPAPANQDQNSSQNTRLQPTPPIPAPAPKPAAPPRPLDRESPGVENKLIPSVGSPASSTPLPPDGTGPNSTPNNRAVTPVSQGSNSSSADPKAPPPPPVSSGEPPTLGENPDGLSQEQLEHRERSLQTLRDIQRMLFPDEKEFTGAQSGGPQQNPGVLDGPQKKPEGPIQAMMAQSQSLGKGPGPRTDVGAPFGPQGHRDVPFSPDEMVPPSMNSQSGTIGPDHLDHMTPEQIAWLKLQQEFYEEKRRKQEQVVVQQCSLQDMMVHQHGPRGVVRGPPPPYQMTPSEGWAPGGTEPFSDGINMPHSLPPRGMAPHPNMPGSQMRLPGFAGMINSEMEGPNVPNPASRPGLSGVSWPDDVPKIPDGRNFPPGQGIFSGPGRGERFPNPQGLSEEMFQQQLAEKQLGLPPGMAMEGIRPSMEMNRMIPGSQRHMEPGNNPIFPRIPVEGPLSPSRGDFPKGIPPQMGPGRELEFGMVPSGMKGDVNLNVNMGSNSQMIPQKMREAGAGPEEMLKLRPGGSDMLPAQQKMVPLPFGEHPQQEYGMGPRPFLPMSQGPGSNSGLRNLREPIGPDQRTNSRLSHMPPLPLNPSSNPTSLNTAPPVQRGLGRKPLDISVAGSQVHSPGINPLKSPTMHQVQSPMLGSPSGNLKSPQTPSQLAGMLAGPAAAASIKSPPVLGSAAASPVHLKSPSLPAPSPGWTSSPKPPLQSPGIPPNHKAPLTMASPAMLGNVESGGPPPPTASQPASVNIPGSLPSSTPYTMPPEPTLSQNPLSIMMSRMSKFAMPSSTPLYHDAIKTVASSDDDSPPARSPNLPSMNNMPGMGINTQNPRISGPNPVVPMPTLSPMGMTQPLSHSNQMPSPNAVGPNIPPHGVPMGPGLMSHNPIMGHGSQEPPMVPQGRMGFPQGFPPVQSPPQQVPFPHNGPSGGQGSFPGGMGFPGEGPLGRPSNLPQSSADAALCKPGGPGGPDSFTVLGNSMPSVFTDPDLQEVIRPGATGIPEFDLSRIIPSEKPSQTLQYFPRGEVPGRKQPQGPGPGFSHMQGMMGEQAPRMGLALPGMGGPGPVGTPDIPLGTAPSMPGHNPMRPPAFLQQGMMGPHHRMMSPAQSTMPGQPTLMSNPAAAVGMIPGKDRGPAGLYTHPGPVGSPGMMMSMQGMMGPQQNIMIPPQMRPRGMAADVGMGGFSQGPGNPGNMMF
# Columns and labels:
# [1] = target: T1, beta-catenin-B-cell lymphoma 9 protein complex (Homo sapiens) (UniProt P35222+O00512); experiment: Inhibition of beta-catenin/BCL9 in human SW480 cells assessed as cyclin D1 mRNA expression at 4 uM by quantitative real-time PCR analysis relative to control; format: cell-based
# [2] = target: T1, beta-catenin-B-cell lymphoma 9 protein complex (Homo sapiens); experiment: Inhibition of beta-catenin/BCL9 in human MDA-MB-231 cells assessed as Axin2 mRNA expression by quantitative real-time PCR analysis based cell based assay
# [3] = target: T1, beta-catenin-B-cell lymphoma 9 protein complex (Homo sapiens); experiment: Inhibition of beta-catenin/BCL9 in human SW480 cells assessed as LEF1 mRNA expression at 4 uM by quantitative real-time PCR analysis relative to control; format: cell-based
# [4] = target: T1, beta-catenin-B-cell lymphoma 9 protein complex (Homo sapiens); experiment: Inhibition of beta-catenin/BCL9 in human MDA-MB-231 cells assessed as LGR5 mRNA expression at 4 uM by quantitative real-time PCR analysis based cell based assay relative to control
# [5] = target: T1, beta-catenin-B-cell lymphoma 9 protein complex (Homo sapiens); experiment: Inhibition of beta-catenin/BCL9 in human MDA-MB-231 cells assessed as Axin2 mRNA expression at 4 uM by quantitative real-time PCR analysis based cell based assay relative to control
# [6] = target: T1, beta-catenin-B-cell lymphoma 9 protein complex (Homo sapiens); experiment: Inhibition of beta-catenin/BCL9 in human MDA-MB-231 cells assessed as LEF1 mRNA expression by quantitative real-time PCR analysis based cell based assay
# [7] = target: T1, beta-catenin-B-cell lymphoma 9 protein complex (Homo sapiens); experiment: Inhibition of beta-catenin/BCL9 in human SW480 cells assessed as Axin2 mRNA expression at 2 uM by quantitative real-time PCR analysis relative to control; format: cell-based
# [8] = target: T1, beta-catenin-B-cell lymphoma 9 protein complex (Homo sapiens); experiment: Inhibition of beta-catenin/BCL9 in human HCT116 cells by co-immunoprecipitation assay; format: cell-based
# [9] = target: T1, beta-catenin-B-cell lymphoma 9 protein complex (Homo sapiens); experiment: Inhibition of beta-catenin/BCL9 in human SW480 cells assessed as cyclin D1 mRNA expression by quantitative real-time PCR analysis based cell based assay
# [10] = target: T1, beta-catenin-B-cell lymphoma 9 protein complex (Homo sapiens); experiment: Inhibition of beta-catenin/BCL9 in human SW480 cells assessed as LGR5 mRNA expression at 2 uM by quantitative real-time PCR analysis relative to control; format: cell-based
# [11] = target: T1, beta-catenin-B-cell lymphoma 9 protein complex (Homo sapiens); experiment: Inhibition of beta-catenin/BCL9 in human MDA-MB-231 cells assessed as cyclin D1 mRNA expression at 4 uM by quantitative real-time PCR analysis based cell based assay relative to control
# [12] = target: T1, beta-catenin-B-cell lymphoma 9 protein complex (Homo sapiens); experiment: Inhibition of beta-catenin/BCL9 in human MDA-MB-231 cells assessed as LEF1 mRNA expression at 1 uM by quantitative real-time PCR analysis based cell based assay relative to control
# [13] = organism: Homo sapiens; experiment: Selectivity ratio of Kd for binding affinity to beta-catenin D145A/E155A mutant (unknown origin) expressed in Escherichia coli BL21 DE3 by ITC method to Kd for binding affinity to C-terminal 6x-histidine tagged wild type beta-catenin (138 to 686 residues) (unknown origin) expressed in Escherichia coli BL21 DE3 by ITC method
# [14] = target: T1, beta-catenin-B-cell lymphoma 9 protein complex (Homo sapiens); experiment: Inhibition of beta-catenin/BCL9 in human MDA-MB-231 cells assessed as LGR5 mRNA expression at 2 uM by quantitative real-time PCR analysis based cell based assay relative to control
# [15] = target: T1, beta-catenin-B-cell lymphoma 9 protein complex (Homo sapiens); experiment: Inhibition of beta-catenin/BCL9 in human SW480 cells assessed as LGR5 mRNA expression at 1 uM by quantitative real-time PCR analysis relative to control; format: cell-based
# [16] = target: T1, beta-catenin-B-cell lymphoma 9 protein complex (Homo sapiens); experiment: Inhibition of beta-catenin/BCL9 in human MDA-MB-231 cells assessed as LGR5 mRNA expression at 1 uM by quantitative real-time PCR analysis based cell based assay relative to control
# [17] = target: T1, beta-catenin-B-cell lymphoma 9 protein complex (Homo sapiens); experiment: Inhibition of beta-catenin/BCL9 in human SW480 cells assessed as Axin2 mRNA expression at 4 uM by quantitative real-time PCR analysis relative to control; format: cell-based
# [18] = target: T1, beta-catenin-B-cell lymphoma 9 protein complex (Homo sapiens); experiment: Inhibition of beta-catenin/BCL9 in human SW480 cells assessed as LGR5 mRNA expression at 4 uM by quantitative real-time PCR analysis relative to control; format: cell-based
# [19] = target: T1, beta-catenin-B-cell lymphoma 9 protein complex (Homo sapiens); experiment: Inhibition of beta-catenin/BCL9 in human MDA-MB-231 cells assessed as LEF1 mRNA expression at 4 uM by quantitative real-time PCR analysis based cell based assay relative to control
# [20] = target: T1, beta-catenin-B-cell lymphoma 9 protein complex (Homo sapiens); experiment: Inhibition of beta-catenin/BCL9 in human MDA-MB-231 cells assessed as Axin2 mRNA expression at 1 uM by quantitative real-time PCR analysis based cell based assay relative to control
# [21] = target: T1, beta-catenin-B-cell lymphoma 9 protein complex (Homo sapiens); experiment: Inhibition of beta-catenin/BCL9 in human SW480 cells assessed as LEF1 mRNA expression by quantitative real-time PCR analysis based cell based assay
# [22] = target: T1, beta-catenin-B-cell lymphoma 9 protein complex (Homo sapiens); experiment: Inhibition of beta-catenin/BCL9 in human SW480 cells assessed as LEF1 mRNA expression at 2 uM by quantitative real-time PCR analysis relative to control; format: cell-based
# [23] = target: T1, beta-catenin-B-cell lymphoma 9 protein complex (Homo sapiens); experiment: Inhibition of beta-catenin/BCL9 in human MDA-MB-231 cells assessed as cyclin D1 mRNA expression by quantitative real-time PCR analysis based cell based assay
# [24] = target: T1, beta-catenin-B-cell lymphoma 9 protein complex (Homo sapiens); experiment: Inhibition of beta-catenin/BCL9 in human SW480 cells assessed as cyclin D1 mRNA expression at 2 uM by quantitative real-time PCR analysis relative to control; format: cell-based
# [25] = target: T1, beta-catenin-B-cell lymphoma 9 protein complex (Homo sapiens); experiment: Inhibition of beta-catenin/BCL9 in human SW480 cells assessed as cyclin D1 mRNA expression at 1 uM by quantitative real-time PCR analysis relative to control; format: cell-based
# [26] = target: T1, beta-catenin-B-cell lymphoma 9 protein complex (Homo sapiens); experiment: Inhibition of beta-catenin/BCL9 in human MDA-MB-231 cells assessed as cyclin D1 mRNA expression at 2 uM by quantitative real-time PCR analysis based cell based assay relative to control
# [27] = target: T1, beta-catenin-B-cell lymphoma 9 protein complex (Homo sapiens); experiment: Inhibition of beta-catenin/BCL9 in human SW480 cells assessed as LEF1 mRNA expression at 1 uM by quantitative real-time PCR analysis relative to control; format: cell-based
# [28] = target: T1, beta-catenin-B-cell lymphoma 9 protein complex (Homo sapiens); experiment: Inhibition of beta-catenin/BCL9 in human SW480 cells assessed as Axin2 mRNA expression at 1 uM by quantitative real-time PCR analysis relative to control; format: cell-based
# [29] = target: T1, beta-catenin-B-cell lymphoma 9 protein complex (Homo sapiens); experiment: Inhibition of beta-catenin/BCL9 in human MDA-MB-231 cells assessed as cyclin D1 mRNA expression at 1 uM by quantitative real-time PCR analysis based cell based assay relative to control
# [30] = target: T1, beta-catenin-B-cell lymphoma 9 protein complex (Homo sapiens); experiment: Inhibition of beta-catenin/BCL9 in human SW480 cells assessed as LGR5 mRNA expression by quantitative real-time PCR analysis based cell based assay
# [31] = target: T1, beta-catenin-B-cell lymphoma 9 protein complex (Homo sapiens); experiment: Inhibition of beta-catenin/BCL9 in human SW480 cells assessed as Axin2 mRNA expression by quantitative real-time PCR analysis based cell based assay
# [32] = target: T1, beta-catenin-B-cell lymphoma 9 protein complex (Homo sapiens); experiment: Inhibition of beta-catenin/BCL9 in human MDA-MB-231 cells assessed as Axin2 mRNA expression at 2 uM by quantitative real-time PCR analysis based cell based assay relative to control
# [33] = target: T1, beta-catenin-B-cell lymphoma 9 protein complex (Homo sapiens); experiment: Inhibition of beta-catenin/BCL9 in human MDA-MB-231 cells assessed as LGR5 mRNA expression by quantitative real-time PCR analysis based cell based assay
# [34] = target: T1, beta-catenin-B-cell lymphoma 9 protein complex (Homo sapiens); experiment: Inhibition of beta-catenin/BCL9 in human MDA-MB-231 cells assessed as LEF1 mRNA expression at 2 uM by quantitative real-time PCR analysis based cell based assay relative to control
smiles,measurement,setting,value
O=C(Nc1ccc(O[C@H]2CCNC2)c(-c2ccc(F)cc2)c1)c1ccc(O[C@H]2CCNC2)c(-c2ccc(F)c(F)c2)c1,fold change (FC),[1],0.27
same,inhibition,[2],Dose-dependent effect
same,fold change (FC),[3],0.65
same,fold change (FC),[4],0.16
same,fold change (FC),[5],0.36
same,inhibition,[6],Dose-dependent effect
same,fold change (FC),[7],0.39
same,inhibition,[8],Dose-dependent effect
same,inhibition,[9],Dose-dependent effect
same,fold change (FC),[10],0.44
same,fold change (FC),[11],0.34
same,fold change (FC),[12],0.69
same,Ratio,[13],9.6
same,fold change (FC),[14],0.42
same,fold change (FC),[15],0.73
same,fold change (FC),[16],0.69
same,fold change (FC),[17],0.23
same,fold change (FC),[18],0.28
same,fold change (FC),[19],0.36
same,fold change (FC),[20],0.7
same,inhibition,[21],Dose-dependent effect
same,fold change (FC),[22],0.77
same,inhibition,[23],Dose-dependent effect
same,fold change (FC),[24],0.42
same,fold change (FC),[25],0.65
same,fold change (FC),[26],0.55
same,fold change (FC),[27],0.94
same,fold change (FC),[28],0.7
same,fold change (FC),[29],0.75
same,inhibition,[30],Dose-dependent effect
same,inhibition,[31],Dose-dependent effect
same,fold change (FC),[32],0.54
same,inhibition,[33],Dose-dependent effect
same,fold change (FC),[34],0.47
